Laboratory results taken from patent publication US9266883B2, “Ring-fused bicyclic pyridyl derivatives as FGFR4 inhibitors” (Novartis AG, priority 2013, dated 2016).

Chains of the proteins cited; added tags and fusions are not shown. Residues count along the entry.
UniProt P22455, 388-802: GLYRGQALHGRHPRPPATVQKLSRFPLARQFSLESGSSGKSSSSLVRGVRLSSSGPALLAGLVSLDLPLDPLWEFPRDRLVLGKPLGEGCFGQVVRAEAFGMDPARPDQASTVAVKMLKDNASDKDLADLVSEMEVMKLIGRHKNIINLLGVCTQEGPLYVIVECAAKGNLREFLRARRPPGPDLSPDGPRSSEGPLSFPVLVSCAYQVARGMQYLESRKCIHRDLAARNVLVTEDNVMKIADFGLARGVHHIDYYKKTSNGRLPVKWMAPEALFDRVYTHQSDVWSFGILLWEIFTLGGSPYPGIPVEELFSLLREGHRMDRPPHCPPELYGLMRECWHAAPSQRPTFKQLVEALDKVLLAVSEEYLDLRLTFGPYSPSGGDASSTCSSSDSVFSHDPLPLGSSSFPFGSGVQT

Target: FGFR4 (GST-FGFR4(388-802)) (Homo sapiens (Human), UniProt P22455)
Test: In-vitro biochemical kinase assay for FGFR4 (Caliper microfluidic mobility shift)

IC50 [nM]	Compound
12.5	COCCNc1cc(NC(=O)N2CCCc3cc(N4CCC(C)C4=O)c(C=O)nc32)ncc1C#N (racemic) [Example 261, N-(5-cyano-4-((2-methoxyethyl)amino)pyridin-2-yl)-7-formyl-6-(3-methyl-2-oxopyrrolidin-1-yl)-3,4-dihydro-1,8-naphthyridine-1(2H)-carboxamide]
1.9	COCCNc1cc(NC(=O)N2CCCc3cc(CN4CCN(C)C(O)C4=O)c(C=O)nc32)ncc1C#N (racemic) [Example 229, N-(5-cyano-4-((2-methoxyethyl)amino)pyridin-2-yl)-7-formyl-6-((3-hydroxy-4-methyl-2-oxopiperazin-1-yl)methyl)-3,4-dihydro-1,8-naphthyridine-1(2H)-carboxamide]
6.3	O=Cc1ccc2c(n1)N(C(=O)Nc1ncc(Cl)c(OC3CCOC3)n1)CCC2 (racemic) [Example 32, N-(5-chloro-4-((tetrahydrofuran-3-yl)oxy)pyrimidin-2-yl)-7-formyl-3,4-dihydro-1,8-naphthyridine-1(2H)-carboxamide]
